{"source": "patent US20030224467A1", "about": "“AIB1 as a prognostic marker and predictor of resistance to endocrine therapy” (priority 2002, published 2003)", "key": {"MCF-7/HER-218 tumors": {"system": "MCF-7/HER-218 tumors", "experiment": "Athymic nude mouse model, MCF-7/HER-218 tumor growth", "assay_type": "in vivo, mice", "procedure": "Ovariectomised female BALB/c-nu+/nu+ mice 4-5 weeks of age were purchased from Harlan Sprague-Dawley (Madison, Wis.). Methods for housing and maintenance of the animals were in accordance to institutional guidelines and were previously described. Estrogen pellets (0.25 mg, 21 day release) were purchased from Innovative Research (Rockville, Md.) and half a pellet placed subcutaneously in the interscapular area of each animal on the day prior to cell injection. MCF-7/HER-218 cells were grown in 150 cm^3 flasks and split 1:5 in DMEM (Invitrogen, Calif.) supplemented with 10% FBS. When flask cell confluence reached 90-100%, cells were harvested using a soft rubber scraper, then spun down at 1000 rpm for 3 minutes, and resuspended in the original media for injection. Cells were injected at 5×10^6−1×10^7 in 0.2 ml per animal in the right mammary fat pad. […] Animals in each one of these groups were either given concomitant Herceptin (10 mg/kg) or control vehicle. Each individual group had 8 animals (n=8). Herceptin or vehicle were given intraperitoneally at a dose of 10/mg/kg twice a week.. Tumors were subsequently measured weekly and recorded according to the formula: Tumor volume=width^2×length/2. Animal were weighed every 2 weeks and monitored for toxicity. […] Values are expressed as relative to tumor volume to size at the beginning of treatment as mean ±s.d."}, "parental MCF-7 tumors": {"system": "parental MCF-7 tumors", "experiment": "Parental MCF-7 tumor growth", "assay_type": "in vivo, mice", "conditions": "Herceptin"}, "MCF-7 cells": {"system": "MCF-7 cells", "experiment": "S-phase fraction of cells", "assay_type": "cell-based, human", "conditions": "Herceptin with heregulin"}, "MCF-7/HER-218 cells": {"system": "MCF-7/HER-218 cells", "experiment": "S-phase fraction of cells", "assay_type": "cell-based, human"}}, "data": [{"substance": "Herceptin: Trastuzumab binds to the HER-2 protein receptor on the surface of cells; blocks the HER-2 pathway", "values": [{"measurement": "Effect on estrogen-induced tumor growth", "setting": "MCF-7/HER-218 tumors; Herceptin 10 mg/kg with continued estrogen, compared to estrogen alone", "value": "slow estrogen-induced growth of MCF-7/HER-218 tumors slightly"}, {"measurement": "Effect on agonist properties of tamoxifen on tumor growth", "setting": "MCF-7/HER-218 tumors; concomitant Herceptin with estrogen deprivation plus tamoxifen", "value": "abolished"}, {"measurement": "Estrogen-mediated tumor growth", "setting": "parental MCF-7 tumors", "value": "unaffected"}, {"measurement": "Heregulin-increased S-phase fraction", "setting": "MCF-7 cells", "value": "blocked"}, {"measurement": "Estrogen's effects on S-phase fraction", "setting": "MCF-7/HER-218 cells; Herceptin with estrogen", "value": "only modestly inhibited"}, {"measurement": "Stimulatory effect of tamoxifen and heregulin on S-phase fraction", "setting": "MCF-7/HER-218 cells; Herceptin with tamoxifen or heregulin", "value": "abrogated"}, {"measurement": "Basal S-phase fraction", "setting": "MCF-7/HER-218 cells; Herceptin, control conditions", "value": "reduced"}]}]}
